Source: US20210205271A1 (The Johns Hopkins University, priority 2018, published 2021)

Assays:
[1] = mouse, in vivo, 30 mg/kg
[2] = mouse, in vivo, iv, 1.5 mg/kg
[3] = mouse, in vivo, po, 30 mg/kg

Mebendazole [MBZ-C]
MBZ plasma concentration at 1 h post oral administration [1]: 2.86 ± 0.25 nmol/mL | t1/2 [2]: 43.8 min | brain AUC0-t [3]: 13.1 µM·h
